# Reference: PubChem BioAssay AID588511 (Johns Hopkins Ion Channel Center, 2011)
# The chains behind the UniProt entries cited, without tags or fusion partners.
# UniProt Q8BHY3, whole entry: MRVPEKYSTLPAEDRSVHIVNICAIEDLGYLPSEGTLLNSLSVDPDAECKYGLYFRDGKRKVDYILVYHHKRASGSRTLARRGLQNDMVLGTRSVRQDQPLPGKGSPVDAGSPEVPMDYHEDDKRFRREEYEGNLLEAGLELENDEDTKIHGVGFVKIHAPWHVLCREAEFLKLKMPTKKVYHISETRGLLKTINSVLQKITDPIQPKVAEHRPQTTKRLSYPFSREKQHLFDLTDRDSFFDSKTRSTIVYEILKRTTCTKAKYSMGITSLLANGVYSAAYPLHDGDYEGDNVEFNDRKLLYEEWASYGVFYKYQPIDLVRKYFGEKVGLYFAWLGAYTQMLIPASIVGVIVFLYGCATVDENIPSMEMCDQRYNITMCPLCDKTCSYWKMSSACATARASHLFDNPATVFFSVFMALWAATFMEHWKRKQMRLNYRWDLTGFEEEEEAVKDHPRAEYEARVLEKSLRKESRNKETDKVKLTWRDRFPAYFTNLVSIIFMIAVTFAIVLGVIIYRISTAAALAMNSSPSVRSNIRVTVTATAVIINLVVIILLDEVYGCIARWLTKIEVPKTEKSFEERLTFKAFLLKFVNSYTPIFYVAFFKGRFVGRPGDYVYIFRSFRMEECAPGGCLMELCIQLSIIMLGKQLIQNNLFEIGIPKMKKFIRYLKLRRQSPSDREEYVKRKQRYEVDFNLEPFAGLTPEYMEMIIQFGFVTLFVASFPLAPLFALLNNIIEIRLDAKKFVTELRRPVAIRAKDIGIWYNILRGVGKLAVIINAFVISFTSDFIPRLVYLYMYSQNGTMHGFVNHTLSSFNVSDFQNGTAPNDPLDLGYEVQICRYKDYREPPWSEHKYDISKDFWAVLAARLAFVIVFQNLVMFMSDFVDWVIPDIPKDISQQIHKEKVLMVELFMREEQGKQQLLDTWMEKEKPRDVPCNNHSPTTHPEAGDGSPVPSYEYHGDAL
# Only a part is listed here, and it is no random draw. Activity calls are given as the source filed them.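 The calls were made as follows: active = ratio plate-corrected score three or more library SD toward inhibition, starting fluorescence score within five deviations; inactive = the rest.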
# Target: Anoctamin-1 (Mus musculus) (UniProt Q8BHY3)
# Assay: TMEM16A chloride channel inhibitors, primary screen, cell-based, HTS (AID 588511)
# Conditions: HEK293 TMEM16A/YFP iodide influx fluorescence, ionomycin; at 10 µM
Structure (SMILES),outcome,B-score
CN(C)CCOC(=O)C(O)(c1ccccc1)C1CCCC1 (configuration not stated),inactive,
CN1CCCC(OC(=O)C(c2ccccc2)c2ccccc2)C1 (configuration not stated),inactive,
COc1ccc(N/C(=N/P(=O)(N2CCOCC2)N2CCOCC2)N2CCOCC2)cc1,inactive,
O=C(OC1CN2CCC1CC2)C12CC3CC(CC(C3)C1)C2 (configuration not stated),inactive,
Cc1cc(=O)[nH]c(N[N+](=O)[O-])n1,inactive,
CCN(CC)CCCOC(=O)C(O)(c1ccccc1)c1ccccc1,inactive,
Cc1c2c(nc3ccccc13)SC(C(Cl)Cl)C2 (configuration not stated),inactive,
COc1ccc2nc(NP(=O)(c3ccccc3)c3ccccc3)sc2c1,inactive,
COc1cc(I)ccc1[As](=O)(O)O,inactive,
COc1ccccc1OP(C)(=O)Nc1ccc(C)cc1 (configuration not stated),inactive,
Cc1ccc(NP(C)(=O)Oc2ccccc2)c(C)c1 (configuration not stated),inactive,
CC(C)c1ccc(OP(=O)(Nc2ccccn2)Oc2ccccc2F)cc1 (configuration not stated),inactive,
CCOC(=O)c1ccc(NP(C)(=O)Oc2ccccc2)cc1 (configuration not stated),inactive,
ClCCSc1nnc(-c2cccnc2)o1,inactive,
Cc1cc(C)cc(OP(C)(N)=O)c1 (configuration not stated),inactive,
CCN(CC)C(=S)SC(NC=O)C(Cl)(Cl)Cl (configuration not stated),inactive,
COc1ccccc1OP(C)(=O)Nc1cc(Cl)ccc1C (configuration not stated),inactive,
CC(C)NC(=O)NP(=O)(Oc1ccccc1)Oc1ccccc1,inactive,
O=[N+]([O-])c1cc([N+](=O)[O-])c(-c2ccn[nH]2)s1,inactive,
COc1ccc(OP(C)(=O)Nc2cccc(F)c2)cc1 (configuration not stated),inactive,
C[As](=O)(O)c1cccc(C(=O)O)c1,inactive,
O=[As](O)(c1ccc(O)cc1)c1ccccc1O,inactive,
O=[N+]([O-])c1cc([N+](=O)[O-])c(Nc2cccnc2)c([N+](=O)[O-])c1,,active: 100
Cc1ccc2nc3c(c(C)c2c1)CC(C(Cl)Cl)S3 (configuration not stated),inactive,

Structure (SMILES),outcome,B-score
O=[N+]([O-])c1ccc2c(c1)C=Nc1ccccc1O2,inactive,
CC(C)(C)c1ccc(OP(C)(=O)Nc2ccc(SC(F)(F)F)cc2)cc1 (configuration not stated),inactive,
Cc1ccc(OP(=O)(Nc2ccc([N+](=O)[O-])cn2)Oc2ccc(C)cc2)cc1,inactive,
Cc1cccc(C)c1OP(C)(N)=O (configuration not stated),inactive,
CCOC(=O)Nc1cccc([As](=O)(O)O)c1,inactive,
CP(=S)(Nn1cnnc1)Oc1ccccc1 (configuration not stated),inactive,
CP(=O)(Nc1ccccc1Br)Oc1ccccc1 (configuration not stated),inactive,
O=[N+]([O-])c1ccc(Nc2ccc(Oc3ccc([N+](=O)[O-])cc3[N+](=O)[O-])cc2)c([N+](=O)[O-])c1,inactive,
O=P(Nc1ccccn1)(c1cccc2ccccc12)c1cccc2ccccc12,inactive,
Cc1cc(SC(NC=O)C(Cl)(Cl)Cl)ncn1 (configuration not stated),inactive,
COc1ccccc1OP(C)(=O)Nc1ccccc1 (configuration not stated),inactive,
CCOC(=O)Nc1ccc([As](=O)(O)O)c(O)c1,inactive,
Cc1cc(SC(NC(=O)c2ccccc2)C(Cl)(Cl)Cl)nc(C(C)C)n1 (configuration not stated),inactive,
CCOC(=O)c1ccc(NP(C)(=O)Oc2ccc(OC)cc2)cc1 (configuration not stated),inactive,
CCOC(=O)c1ccc(NC(=O)C(C)(CCl)SC)cc1 (configuration not stated),inactive,
O=[N+]([O-])c1cc([N+](=O)[O-])c(O)c([N+](=O)[O-])c1.c1ccc(Oc2ccncc2)cc1,inactive,
CCOP(C)(=S)SCC(=O)NC(C)C(=O)O (configuration not stated),inactive,
O=C(OC1CN2CCC1CC2)c1cccc([N+](=O)[O-])c1 (configuration not stated),inactive,
CP(=O)(Nc1ccccn1)Oc1ccc(Cl)cc1 (configuration not stated),inactive,
CCC(C)N(CC(C)C)C(=S)SC(NC(C)=O)C(Cl)(Cl)Cl (configuration not stated),inactive,
Cc1cccc(C)c1OP(C)(=O)Nc1ccc(SC(F)(F)F)cc1 (configuration not stated),inactive,
CP(=O)(Nc1ccc(SC(F)(F)F)cc1)Oc1ccc(Cl)cc1 (configuration not stated),inactive,
COP1(=S)c2c(C)nn(CCC#N)c2N=C(c2ccc(F)cc2)N1C (configuration not stated),inactive,
CP(=O)(Oc1ccccc1)OC(c1ccccc1)C(F)(F)F (configuration not stated),inactive,

Structure (SMILES),outcome,B-score
CCc1ccc(OP(C)(=O)N2CCN(c3ccc([N+](=O)[O-])cc3)CC2)cc1 (configuration not stated),inactive,
O=C(COc1ccccc1)OC1CN2CCC1CC2 (configuration not stated),inactive,
CP(=O)(NC(=O)Nc1ccccc1)Oc1ccccc1 (configuration not stated),inactive,
O=C(Nc1ccncc1[N+](=O)[O-])c1ccc([N+](=O)[O-])cc1[N+](=O)[O-],inactive,
Cc1cc(C)cc(OP(C)(=O)Nc2ccc(SC(F)(F)F)cc2)c1 (configuration not stated),inactive,
COc1ccccc1CNC(=O)COC(=O)C(O)(c1ccccc1)c1ccccc1,inactive,
O=[N+]([O-])c1cc([N+](=O)[O-])c(-c2cnn(-c3ccccc3)c2)c([N+](=O)[O-])c1,inactive,
O=[As](O)(c1ccccc1Br)c1ccccc1Br,inactive,
CC1(CBr)Cn2c(nc3ccccc3c2=O)S1 (configuration not stated),inactive,
Cc1nc2ccc3ccccc3c2s1.O=[N+]([O-])c1cc([N+](=O)[O-])c(O)c([N+](=O)[O-])c1,inactive,
CC(C)/C=N\N=C(\N)N[N+](=O)[O-],inactive,
CN(C(=O)Cc1ccc(Cl)c(Cl)c1)[C@@H]1CCCC[C@H]1N1CCCC1,inactive,
CN(CCCl)Cc1cc(Cl)c(NC2=NCCN2)c(Cl)c1,inactive,
CCOP(=O)(Nc1ccc(C)cn1)OCC,inactive,
O=P1(Nc2ccccn2)COc2ccccc2OC1,inactive,
CCC1=CC2Cc3nc4ccc(Cl)cc4c(N)c3C(C1)C2 (configuration not stated),inactive,
CCOP(=O)(NC(=NC(C)c1ccccc1)NC(C)c1ccccc1)OCC (configuration not stated),inactive,
O=[N+]([O-])c1cc([N+](=O)[O-])c(-n2nnc3ccccc32)c([N+](=O)[O-])c1,inactive,
Clc1n[nH]nc1-c1nn[nH][15n]1,inactive,
CC(C)(C)C(=O)NC(Sc1ncccn1)C(Cl)(Cl)Cl (configuration not stated),inactive,
O=P1(Nc2ncccn2)COc2ccccc2OC1,inactive,
COc1ccccc1OP(C)(=O)Nc1c(C)cccc1C (configuration not stated),inactive,
CN1CCCCC1COC(=O)C1(O)c2ccccc2CCc2ccccc21 (configuration not stated),inactive,
O=P1(Nc2ccc(Br)cn2)COc2ccccc2OC1,inactive,

Structure (SMILES),outcome,B-score
Cc1ccc(OCC(=O)OC2CN3CCC2CC3)cc1 (configuration not stated),inactive,
O=[As](O)(c1cccs1)c1cccs1,inactive,
CP(=O)(Nc1ccc(SC(F)(F)F)cc1)Oc1ccccc1 (configuration not stated),inactive,
Nc1cccc([As](=O)(O)c2ccccc2)c1,inactive,
CCCOc1ccc(NP(C)(=O)Oc2ccc(Cl)cc2)cc1 (configuration not stated),inactive,
COc1cc(C2NCCC3(OCCO3)C2(C)C)cc(OC)c1OC.O=[N+]([O-])c1cc([N+](=O)[O-])c(O)c([N+](=O)[O-])c1 (configuration not stated),inactive,
Cc1nn(-c2ccccc2)c2c1P(=O)(N1CCOCC1)N(C)C(c1ccccc1)=N2 (configuration not stated),inactive,
CC1CCC(C(C)C)C(OP(=O)(Nc2ccccn2)c2ccccc2)C1 (configuration not stated),inactive,
Cc1ccc(C(=O)OC2CN3CCC2CC3)cc1 (configuration not stated),inactive,
O=C(/C=C/c1ccccc1)OC1CN2CCC1CC2 (configuration not stated),inactive,
O=[N+]([O-])c1cc([N+](=O)[O-])c(Nc2nnnn2CCO)c([N+](=O)[O-])c1,inactive,
CN(C)C1(CNC(=O)c2ccc(S(C)(=O)=O)cc2)CCCCC1,inactive,
CC1=C2N=C(C=C3N=C(C(C)=C4[N-][C@@](C)([C@@H]5N=C1[C@](C)(CCC(=O)NC[C@@H](C)OP(=O)([O-])O[C@H]1[C@@H](O)[C@@H](n6cnc7cc(C)c(C)cc76)O[C@@H]1CO)[C@H]5CC(N)=O)[C@@](C)(CC(N)=O)[C@@H]4CCC(N)=O)[C@@](C)(CC(N)=O)[C@@H]3CCC(N)=O)C(C)(C)[C@@H]2CCC(N)=O.[C-]#N.[Co+3],inactive,
CCOC(=O)C(CC)C1=NC(C)(C)Cc2ccccc21.O=[N+]([O-])c1cc([N+](=O)[O-])c(O)c([N+](=O)[O-])c1 (configuration not stated),inactive,
NC(=O)Nc1ccc([As](=O)(O)O)cc1,inactive,
CN(C)C(=O)c1cc([N+](=O)[O-])cc2c1-c1c(cc([N+](=O)[O-])cc1[N+](=O)[O-])C2=O,inactive,
O=[N+]([O-])c1ccc2c(c1)nnn2O,inactive,
CN(C(=O)Cc1ccc(Cl)c(Cl)c1)[C@H]1CC[C@@]2(CCCO2)C[C@@H]1N1CCCC1,inactive,
CC1=NCCc2c1[nH]c1ccccc21.O=[N+]([O-])c1cc([N+](=O)[O-])c(O)c([N+](=O)[O-])c1,inactive,
N#CCCN(C(=O)COC(=O)C(O)(c1ccccc1)c1ccccc1)c1ccc(F)cc1,inactive,
CN(C(=O)Cc1ccccc1)[C@@H]1CC[C@]2(CCCO2)C[C@H]1N1CCCC1,inactive,
CCOP1(=S)c2c(C)nn(CCC#N)c2N=C(c2ccc(F)cc2)N1C (configuration not stated),inactive,
CS(=O)(=O)c1cc([N+](=O)[O-])c2no[n+]([O-])c2c1,inactive,
CCOP1(=S)c2c(C)nn(CCC#N)c2N=C(c2ccccc2F)N1C (configuration not stated),inactive,

Structure (SMILES),outcome,B-score
O=C(O)c1cccc(Nc2c([N+](=O)[O-])cc([N+](=O)[O-])cc2[N+](=O)[O-])c1,inactive,
O=P(Nc1nccs1)(c1ccccc1)c1nc2ccccc2s1 (configuration not stated),inactive,
O=P(Nc1nccs1)(Oc1ccccc1)Oc1ccccc1,inactive,
Nc1ccccc1[As](=O)(O)c1ccccc1,inactive,
O=C(O)COc1ccc([As](=O)(O)O)cc1[N+](=O)[O-],inactive,
CCCOP(=S)(Nc1nc(N)cc(=O)[nH]1)OCCC,inactive,
Cc1ccc(C)c(NP(C)(=O)Oc2ccccc2)c1 (configuration not stated),inactive,
CP(=O)(Nc1cccc(Br)c1)Oc1ccccc1 (configuration not stated),inactive,
Cc1cc(C)cc(OP(C)(=O)Nc2ccccn2)c1 (configuration not stated),inactive,
Cc1ccc(NCCc2c([N+](=O)[O-])cc([N+](=O)[O-])cc2[N+](=O)[O-])cc1,inactive,
Nc1cccc2c([As](=O)(O)O)cccc12,inactive,
CCOP(=O)(Nc1cccc2ccccc12)OCC,inactive,
COc1cc(C(=O)NCC2(N3CCOCC3)CCCCC2)cc(Cl)c1OC(C)C,inactive,
O=[As](O)(O)c1cccnc1,inactive,
COc1ccccc1OP(C)(=O)Nc1cccc(Br)c1 (configuration not stated),inactive,
CS(=O)(=O)c1ccc(Cl)c(NC(=O)COC(=O)C(O)(c2ccccc2)c2ccccc2)c1,inactive,
O=C(OC1CN2CCC1CC2)c1ccc(Cl)cc1 (configuration not stated),inactive,
CCOC(=O)c1ccc(NP(C)(=O)Oc2cc(C)cc(C)c2)cc1 (configuration not stated),inactive,
O=[As](O)(c1cccc(O)c1)c1cccc(O)c1,inactive,
Cc1cccc(OCC(=O)OC2CN3CCC2CC3)c1 (configuration not stated),inactive,
Cc1cc(C)cc(OP(C)(=O)Nc2ccc(C)cc2C)c1 (configuration not stated),inactive,
